Test results: patent US20140154251A1, “ANTI C-MET ANTIBODY AND USES THEREOF” (Samsung Electronics Co., Ltd., priority 2011, published 2014)

What was measured:
[1] = tested on: MKN45 gastric cancer cells; assay: In vitro cell proliferation analysis (CellTiter-Glo); type: cell-based, human; details: 0.008 ug/ml, 72 hours
Procedure: In order to identify anti-cancer effects of the 4 types of antibodies having improved affinities, as prepared in Example 5, in vitro cell proliferation analysis was performed using MKN45 gastric cancer cells on which c-Met is expressed (Japanese Cancer Research Bank, JCRB, Tokyo, Japan).
(§1) 1×10^4 MKN45 cells suspended in 50 ul of 5% (w/v) FBS/DMEM culture medium were introduced to each well of a 96-well plate. Then, the cells were either not treated or were treated with 50 ul of the 4 types of antibodies at a concentration of 0.008, 0.04, 0.2, or 1 ug/ml. After incubating for 72 hours, the number of cells was quantified by using a CellTiter-Glo Luminescent Cell Viability Assay Kit (Promega, G7570) with a leuminometer (PerkinElmer, 2104 Multilabel reader).
In order to identify anti-cancer effects of the three types of antibodies prepared in Example 11, in vitro cell proliferation analysis was performed using MKN45 gastric cancer cells having c-Met on the cell membrane (Japanese Cancer Research Bank, JCRB, Tokyo, Japan).
as §1, with “Then, the cells were either not treated or were treated with 50 ul of the 4 types of antibodies at a concentration of 0.008, 0.04, 0.2, or 1 ug/ml.” left out

[2] = tested on: Akt; assay: Akt phosphorylation in Caki-1 cells (phospho-AKT1 Ser473 ELISA); type: cell-based; details: 5 ug/ml, 30 minutes, serum free; 5D5 = 100%
Procedure: (§2) To compare agonism of the 4 types of antibodies having improved affinities, as prepared in Example 5, Caki-1 cells (Korean Cell Line Bank) were used to confirm the degree of Akt phosphorylation. Mouse IgG was used as a negative control, and antibody 5D5 (a known agonist) was used as a positive control.
(§3) 2×10^5 cells/ml of Caki-1 cells were introduced to a 96-well plate, and after 24 hours, each of 5 ug/ml of the antibodies was treated in serum free medium for 30 minutes. Lysis of the cells treated with the antibodies was performed and the degree of Akt phosphorylation was measured using a PathScan phospho-AKT1 (Ser473) chemiluminescent Sandwich ELISA kit (Cell Signaling, cat. no #7134S).
as §2, with “3” for “4”, “11,” for “5,”, “and a 5D5” for “and”, “antibody” for “antibody 5D5”
as §3, with “with” for “with the”, “and a” for “and the”, “phosphorylation inhibition” for “phosphorylation”, “(Ser473) a” for “(Ser473)”

B1: huAbF46: humanized anti-c-Met antibody from chAbF46, combination of H4-heavy chain and H4-light chain (antibody)
heavy: EVQLVESGGGLVQPGGSLRLSCAASGFTFTDYYMSWVRQAPGKGLEWLGFIRNKANGYTTEYSASVKGRFTISRDNSKNTLYLQMNSLRAEDTAVYYCARDNWFAYWGQGTLVTVSSASTKGPSVFPLAPSSKSTSGGTAALGCLVKDYFPEPVTVSWNSGALTSGVHTFPAVLQSSGLYSLSSVVTVPSSSLGTQTYICNVNHKPSNTKVDKKV[sequence of human IgG1 Fc omitted]
light: DIQMTQSPSSLSASVGDRVTITCKSSQSLLASGNQNNYLAWHQQKPGKAPKMLIIWASTRVSGVPSRFSGSGSGTDFTLTISSLQPEDFATYYCQQSYSAPLTFGQGTKVEIKRTVAAPSVFIFPPSDEQLKSGTASVVCLLNNFYPREAKVQWKVDNALQSGNSQESVTEQDSKDSTYSLSSTLTLSKADYEKHKVYACEVTHQGLSSPVTKSFNRGE
In the case of B1, the relative cell viability [1] is reported as 77% and the “degree of Akt phosphorylation” value [2] is reported as 29.06%.
